Measurements as given in PubChem BioAssay (NCI).
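Grown in 96-well plates, cells were treated for 48 hours with each compound at five concentrations. Insufficient inhibition: endpoint recorded as highest concentration tested. The concentration for 50% growth inhibition is given as GI50. At the TGI there is no net growth.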

Legend:
Assay in all cases: growth of human tumour cells (NCI), 48 h
SF-539 CNS = tested on: SF-539 CNS
TK-10 renal = tested on: TK-10 renal
IGROV1 ovarian = tested on: IGROV1 ovarian
HCC-2998 colon = tested on: HCC-2998 colon
T-47D breast = tested on: T-47D breast
SNB-75 CNS = tested on: SNB-75 CNS
SF-268 CNS = tested on: SF-268 CNS
HL-60(TB) leukemia = tested on: HL-60(TB) leukemia
SK-MEL-28 melanoma = tested on: SK-MEL-28 melanoma
HS 578T breast = tested on: HS 578T breast
M14 melanoma = tested on: M14 melanoma
HT29 colon = tested on: HT29 colon
NCI-H322M lung = tested on: NCI-H322M lung
MDA-MB-231 breast = tested on: MDA-MB-231 breast
OVCAR-4 ovarian = tested on: OVCAR-4 ovarian
NCI-H23 lung = tested on: NCI-H23 lung
UACC-62 melanoma = tested on: UACC-62 melanoma
SK-MEL-5 melanoma = tested on: SK-MEL-5 melanoma
ACHN renal = tested on: ACHN renal
OVCAR-3 ovarian = tested on: OVCAR-3 ovarian
MDA-N = tested on: MDA-N
SW-620 colon = tested on: SW-620 colon
HCT-116 colon = tested on: HCT-116 colon
MDA-MB-435 = tested on: MDA-MB-435
SNB-19 CNS = tested on: SNB-19 CNS
LOX IMVI melanoma = tested on: LOX IMVI melanoma
PC-3 prostate = tested on: PC-3 prostate
NCI-H460 lung = tested on: NCI-H460 lung
MCF7 breast = tested on: MCF7 breast
A549 NSCLC = tested on: A549 NSCLC
DU-145 prostate = tested on: DU-145 prostate
RXF 393 renal = tested on: RXF 393 renal
HOP-92 NSCLC = tested on: HOP-92 NSCLC
U251 CNS = tested on: U251 CNS
SK-OV-3 ovarian = tested on: SK-OV-3 ovarian
RPMI-8226 leukemia = tested on: RPMI-8226 leukemia
KM12 colon = tested on: KM12 colon
MALME-3M melanoma = tested on: MALME-3M melanoma
SK-MEL-2 melanoma = tested on: SK-MEL-2 melanoma
UO-31 renal = tested on: UO-31 renal
OVCAR-8 ovarian = tested on: OVCAR-8 ovarian
A498 renal = tested on: A498 renal
NCI-H226 lung = tested on: NCI-H226 lung
786-0 renal = tested on: 786-0 renal
CAKI-1 renal = tested on: CAKI-1 renal
NCI-H522 lung = tested on: NCI-H522 lung
COLO 205 colon = tested on: COLO 205 colon
SF-295 CNS = tested on: SF-295 CNS
EKVX NSCLC = tested on: EKVX NSCLC
NCI/ADR-RES ovarian = tested on: NCI/ADR-RES ovarian
SN12C renal = tested on: SN12C renal
BT-549 breast = tested on: BT-549 breast
HCT-15 colon = tested on: HCT-15 colon
CCRF-CEM leukemia = tested on: CCRF-CEM leukemia
K-562 leukemia = tested on: K-562 leukemia
OVCAR-5 ovarian = tested on: OVCAR-5 ovarian
UACC-257 melanoma = tested on: UACC-257 melanoma

## CCCCCCCCCCCCCCC[C@@H]1C[N+](C)(C)CCO[P@@](C)(=O)O1
SF-539 CNS
  GI50: 1.84 µM
  TGI: 5.78 µM
TK-10 renal
  GI50: 1.57 µM
  TGI: 3.13 µM
IGROV1 ovarian
  GI50: 0.358 µM
  TGI: 1.93 µM
HCC-2998 colon
  GI50: 1.55 µM
  TGI: 3.8 µM
T-47D breast
  GI50: 7.51 µM
  TGI: > 100 µM
SNB-75 CNS
  GI50: 0.41 µM
  TGI: 1.92 µM
SF-268 CNS
  GI50: 1.18 µM
  TGI: 2.68 µM
HL-60(TB) leukemia
  GI50: > 100 µM
  TGI: > 100 µM
SK-MEL-28 melanoma
  GI50: 25.4 µM
  TGI: 68.9 µM
HS 578T breast
  GI50: 0.472 µM
  TGI: 2.58 µM
M14 melanoma
  GI50: 2.8 µM
  TGI: 14.2 µM
HT29 colon
  GI50: 0.524 µM
  TGI: 3.97 µM
NCI-H322M lung
  GI50: 11.6 µM
  TGI: 31.3 µM
MDA-MB-231 breast
  GI50: 1.18 µM
  TGI: 4.51 µM
OVCAR-4 ovarian
  GI50: 2.82 µM
  TGI: 13.3 µM
NCI-H23 lung
  GI50: 0.915 µM
  TGI: 2.87 µM
UACC-62 melanoma
  GI50: 3.17 µM
  TGI: 17.1 µM
SK-MEL-5 melanoma
  GI50: 5.54 µM
  TGI: 37.9 µM
ACHN renal
  GI50: 2.58 µM
  TGI: 14.3 µM
OVCAR-3 ovarian
  GI50: 2.37 µM
  TGI: > 100 µM
MDA-N
  GI50: 13.6 µM
  TGI: 44.2 µM
SW-620 colon
  GI50: 3.14 µM
  TGI: 43.1 µM
HCT-116 colon
  GI50: 2.38 µM
  TGI: 88.8 µM
MDA-MB-435
  GI50: 9.48 µM
  TGI: 59.3 µM
SNB-19 CNS
  GI50: 1.13 µM
  TGI: 2.55 µM
LOX IMVI melanoma
  GI50: 0.51 µM
  TGI: 2.96 µM
PC-3 prostate
  GI50: 0.434 µM
  TGI: 1.69 µM
NCI-H460 lung
  GI50: 0.376 µM
  TGI: 1.6 µM
MCF7 breast
  GI50: 3.91 µM
  TGI: 27.6 µM
A549 NSCLC
  GI50: 1.52 µM
  TGI: 4.53 µM
DU-145 prostate
  GI50: 5.27 µM
  TGI: 48 µM
RXF 393 renal
  GI50: 0.722 µM
  TGI: 2.24 µM
HOP-92 NSCLC
  GI50: 1.37 µM
  TGI: 5.99 µM
U251 CNS
  GI50: 0.462 µM
  TGI: 1.96 µM
SK-OV-3 ovarian
  GI50: 4.69 µM
  TGI: 24.4 µM
RPMI-8226 leukemia
  GI50: 0.537 µM
  TGI: 2.38 µM
KM12 colon
  GI50: 0.207 µM
  TGI: 0.515 µM
MALME-3M melanoma
  GI50: 2.7 µM
  TGI: 8.52 µM
SK-MEL-2 melanoma
  GI50: 19.1 µM
  TGI: 54.5 µM
UO-31 renal
  GI50: 7.8 µM
  TGI: 24 µM
OVCAR-8 ovarian
  GI50: 2.54 µM
  TGI: 8.92 µM
A498 renal
  GI50: 10.1 µM
  TGI: 85.4 µM
NCI-H226 lung
  GI50: 1.62 µM
  TGI: 7.52 µM
786-0 renal
  GI50: 0.213 µM
  TGI: 0.525 µM
CAKI-1 renal
  GI50: 1.23 µM
  TGI: 6.24 µM
NCI-H522 lung
  GI50: 0.55 µM
  TGI: 2.52 µM
COLO 205 colon
  GI50: 0.933 µM
  TGI: 5.24 µM
SF-295 CNS
  GI50: 1.19 µM
  TGI: 3.36 µM
EKVX NSCLC
  GI50: 9.42 µM
  TGI: 34.9 µM
NCI/ADR-RES ovarian
  GI50: 16.5 µM
  TGI: 35.4 µM
SN12C renal
  GI50: 1.81 µM
  TGI: 7.11 µM
BT-549 breast
  GI50: 1.25 µM
  TGI: 3.72 µM
HCT-15 colon
  GI50: 1.49 µM
  TGI: 10.5 µM
CCRF-CEM leukemia
  GI50: 0.727 µM
  TGI: 17.1 µM
K-562 leukemia
  GI50: 3.38 µM
  TGI: 40.3 µM
OVCAR-5 ovarian
  GI50: 2.2 µM
  TGI: 8.91 µM
UACC-257 melanoma
  GI50: 8.73 µM
  TGI: 34.2 µM
